# Structures can show the parent of a compound that is named as a salt.
# The chains behind the UniProt entries cited, without tags or fusion partners. Where a name states a change or a piece, a line headed by the entry shows the natural chain unless it says otherwise.
# UniProt P28335: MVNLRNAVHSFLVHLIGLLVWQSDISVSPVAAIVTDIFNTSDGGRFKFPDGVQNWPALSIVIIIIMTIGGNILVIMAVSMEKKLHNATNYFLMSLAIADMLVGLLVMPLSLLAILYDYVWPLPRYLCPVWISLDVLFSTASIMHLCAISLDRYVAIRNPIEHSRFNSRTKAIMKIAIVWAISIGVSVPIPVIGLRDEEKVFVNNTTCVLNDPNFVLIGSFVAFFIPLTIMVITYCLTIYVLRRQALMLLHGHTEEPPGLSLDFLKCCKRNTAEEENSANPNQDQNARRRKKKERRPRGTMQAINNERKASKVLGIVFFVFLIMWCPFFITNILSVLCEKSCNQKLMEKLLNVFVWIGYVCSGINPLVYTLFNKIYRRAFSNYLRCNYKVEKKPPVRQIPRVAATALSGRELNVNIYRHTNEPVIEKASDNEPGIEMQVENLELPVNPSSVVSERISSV
# Molecular target: human recombinant 5-HT2C receptor (Homo sapiens (Human), UniProt P28335)
# Settings: read-out: Binding affinity to serotonin receptor 5-HT2C: IC50
row,SMILES,IC50
1,"COc1ccccc1-n1c(C)nc(C(=O)NCCCN2CCN(c3cccc(C)c3C)CC2)c1C [Example 99, N-(3-(4-(2,3-dimethylphenyl)piperazin-1-yl)propyl)-1-(2-methoxyphenyl)-2,5-dimethyl-1H-imidazole-4-carboxamide dihydrochloride]",146 nM
2,"Cc1c(Cl)cccc1N1CCN(C[C@@H](O)CNC(=O)c2nc(-c3ccccc3)n(-c3ccc(F)cc3)c2C)CC1 [Example 142, (S)—N-(3-(4-(3-chloro-2-methylphenyl)piperazin-1-yl)-2-hydroxypropyl)-1-(4-fluorophenyl)-5-methyl-2-phenyl-1H-imidazole-4-carboxamide dihydrochloride]",534 nM
